Assays:
[1] = Solubility (phosphate buffered saline); conditions: buffer
[2] = Partition coefficient (logD7.4); conditions: octanol/water, pH 7.4

| SMILES | S [1] [µM] | logD [2] |
| --- | --- | --- |
| O=C(OCc1ccc2nsnc2c1)N1CCC2(CC1)C(=O)NCN2c1ccccc1 | < 10 | 3.4 |
| O=C1CNc2ccccc2N1C1CCN(Cc2cc3c(cc2Cl)OCO3)CC1 | 46.4 | 1.3 |
| O=C(NCc1ccc2c(c1)OCO2)N1CCC2(CC1)C(=O)NCN2c1ccccc1 | 28.8 | 2.8 |
| O=C(Cc1c[nH]c2ccc(Br)cc12)N1CCN(c2ccc([N+](=O)[O-])c3nonc23)CC1 | < 10 |  |
| O=C(/C=C/c1cc2c(cc1[N+](=O)[O-])OCO2)N1CCC2(CC1)C(=O)NCN2c1ccccc1 | 24.3 | 3.1 |
| O=C(O)CN1CN(c2ccccc2)C2(CCN(C(=O)OCc3cc4c(cc3Cl)OCO4)CC2)C1=O | 98.1 | 0.7 |
| O=C(OCc1cc2c(cc1[N+](=O)[O-])OCO2)N1CCC(n2c(O)nc3ccccc32)CC1 | < 10 |  |
| Cc1ncc([N+](=O)[O-])n1CCNC(=O)N1CCC(c2cc(-c3ccc(Cl)cc3Cl)n[nH]2)CC1 | 46.5 |  |
| COc1cc(CC(=O)N2CCC(n3c(O)nc4ccccc43)CC2)c([N+](=O)[O-])cc1OC | < 10 | 2.4 |
| O=C(OCc1cc2c(cc1[N+](=O)[O-])OCO2)N1CCC2(CC1)C(=O)NCN2c1ccccc1 | < 10 |  |
| COc1cc(/C=C/C(=O)N2CCC3(CC2)C(=O)NCN3c2ccccc2)c([N+](=O)[O-])cc1OC | 34.8 | 3 |
| O=C(c1cc2cc(Cl)ccc2[nH]1)N1CCN(S(=O)(=O)c2ccc([N+](=O)[O-])cc2[N+](=O)[O-])CC1 | < 10 | > 4 |
| O=C(NCCn1c(=O)[nH]c2ccccc21)OCc1cc2c(cc1Cl)OCO2 | < 10 |  |
| O=C(OCc1cccnc1)N1CCC2(CC1)C(=O)NCN2c1ccccc1 | 105 |  |
